## Yeast mating assay 1: variants of the scFv Ab-14

Antigen: PDVDLGDISGINAS, a 14-residue peptide of the SARS-CoV-2 spike HR2 region.

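Phage display of a naive human antibody library on the peptide gave the parent. AAYL50 was designed without a model: most single CDR substitutions and a random sample of double and triple ones. The scFvs were displayed on barcoded MATa yeast, the peptide on MATalpha yeast. Mating (16 h, 30 °C) was followed by selection of diploids and sequencing of their barcodes. Each replicate has its own calibration line, from reference interactions of the BCL2 family. There are three technical replicates.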

The variants keep the heavy chain, the linker and the frameworks of Ab-14 (scFv order VH, a 15-residue (Gly4Ser)3 linker, VL).
VH: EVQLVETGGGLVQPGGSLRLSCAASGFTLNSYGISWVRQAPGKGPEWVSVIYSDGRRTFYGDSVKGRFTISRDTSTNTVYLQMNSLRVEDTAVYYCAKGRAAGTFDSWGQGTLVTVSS
VL: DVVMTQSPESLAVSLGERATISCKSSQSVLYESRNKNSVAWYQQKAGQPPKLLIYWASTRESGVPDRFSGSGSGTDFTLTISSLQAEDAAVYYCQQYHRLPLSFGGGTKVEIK

The parent's light chain CDRs are KSSQSVLYESRNKNSVA, WASTRES, QQYHRLPLS; each variant's own CDRs replace them letter for letter.
Values are apparent Kd, the geometric mean of the replicates that gave a signal; lower means stronger binding.
"nd" means that the variant was in the library but no mating with the target was seen in any replicate; the authors take this as a sign of poor binding, and no number exists.

For KSSQSVLYESRNKNSVA | WASTREW | QLHHRLPLS, the assay gave 4.7 µM (2 of 3 replicates; controls 3 of 9).
For MSSQSVLYESRNKNSVA | WASQRES | QQYHRLPLK, the assay gave 2.3 µM (1 of 3 replicates; controls 1 of 9).
For KYSQSVLYERRNKNLVA | WASTRES | QQYHRLPLS, the assay gave 490 nM (2 of 3 replicates; controls 1 of 9).
For KSSQSVLYEYRNDNSVI | WASTRES | QQYHRLPLS, the assay gave 840 µM (1 of 3 replicates; controls 4 of 9).
For KSSQSVMYESRNKNSSA | WASTRES | QQYHRLPNS, the assay gave nd (0 of 3 replicates; controls 0 of 9).
For KSSQSVLYESRNKKSYA | WASTRTS | QQYHRLPLS, the assay gave nd (0 of 3 replicates; controls 1 of 9).
For KSSQSVLYSSRNKNSVA | WASTRES | QVYHRLPRS, the assay gave 56 µM (2 of 3 replicates; controls 3 of 9).
For KSSQSVLYESRNKNTVA | HASTRVS | QQYHRLPLS, the assay gave 5.5 nM (3 of 3 replicates; controls 1 of 9).
For SSPQSVLYESRNKNSVA | WAHTRES | QQYHRLPLS, the assay gave 170 nM (3 of 3 replicates; controls 0 of 9).
For KSSQSVLYESRNKYLVA | WASTRES | QQYARLPLS, the assay gave 18 µM (2 of 3 replicates; controls 3 of 9).
For KSSQHVLYYARNKNSVA | WASTRES | QQYHRLPLS, the assay gave 1.1 µM (3 of 3 replicates; controls 5 of 9).
For KSSQSVLWESRNKNSVA | WASTRTS | QQYHRLPVS, the assay gave 2.8 µM (3 of 3 replicates; controls 6 of 9).
For KSSQSVLYESRDKNSRY | WASTRES | QQYHRLPLS, the assay gave 9.9 nM (3 of 3 replicates; controls 0 of 9).
For KSSQSVLYESRNKNSVA | WAKTRES | NQYHRLPLG, the assay gave 30 nM (3 of 3 replicates; controls 0 of 9).
For ESSQSVLYESRNKNSVA | WASQRPS | QQYHRLPLS, the assay gave nd (0 of 3 replicates; controls 2 of 9).
For KSSQSVLYESRNKNSAA | WANTRES | QQYKRLPLS, the assay gave nd (0 of 3 replicates; controls 0 of 9).
For KSSQSVLYESRRKNSHA | WASTRES | QQYHRLPLK, the assay gave 5.6 µM (1 of 3 replicates; controls 4 of 9).
For KSSQSVLYESRNFNHVA | WLSTRES | QQYHRLPLS, the assay gave 38 µM (1 of 3 replicates; controls 1 of 9).
For KTSQSVLYESRNKNSVA | WLSTRES | QQYHRLPYS, the assay gave 240 nM (3 of 3 replicates; controls 0 of 9).
For KSSQSVLYESRNKNYVA | WASTRES | QQYHLEPLS, the assay gave nd (0 of 3 replicates; controls 0 of 9).
For KSNQSVWYESRNKNSVA | WASTRES | QWYHRLPLS, the assay gave 23 nM (3 of 3 replicates; controls 3 of 9).
For KSVQSVLYESRNENSVA | WASTRES | QQYWRLPLS, the assay gave 89 nM (3 of 3 replicates; controls 1 of 9).
For KSSQSVLLESRNNNSVA | WASTRES | QQYHGLPLS, the assay gave nd (0 of 3 replicates; controls 0 of 9).
For KSSQSVLRESWNKNSVH | WASTRES | QQYHRLPLS, the assay gave nd (0 of 3 replicates; controls 0 of 9).
For KSSLSVLYESRNKNSVA | WASTRKS | QQYHRRPLS, the assay gave nd (0 of 3 replicates; controls 1 of 9).
For KSSQSVLYWSRNKWSVA | WASTQES | QQYHRLPLS, the assay gave nd (0 of 3 replicates; controls 0 of 9).
For KSLQSVLYESRNKNSVA | WASTRES | QQYHRLPNS, the assay gave 16 µM (2 of 3 replicates; controls 1 of 9).
For KDSQSVLYESRNKNSVA | WATTRET | QQYHRLPLS, the assay gave 5.5 nM (3 of 3 replicates; controls 1 of 9).
For KSSQSVLNESRNKESVA | WASTRES | QQYHHLPLS, the assay gave nd (0 of 3 replicates; controls 1 of 9).
For KSSQSVLYESRNKNSVA | WRSTREH | QQWHRLPLS, the assay gave 6.7 µM (2 of 3 replicates; controls 3 of 9).
For KSSQSILYESRNKNSVA | WAKTREP | QQYHRLPLS, the assay gave 220 nM (3 of 3 replicates; controls 2 of 9).
For KSSQSVLYESRAKNSVA | WASTRES | QQVHRLPPS, the assay gave 16 nM (3 of 3 replicates; controls 1 of 9).
For KSFQSVGYESRNKNSVT | WASTRES | QQYHRLPLS, the assay gave nd (0 of 3 replicates; controls 1 of 9).
For KSSQSVLHDSRNKNSVA | WASCRES | QQYHRLPLS, the assay gave 9.7 nM (3 of 3 replicates; controls 0 of 9).

Three control strains display no target. For library AAYL50, 18% of the pairings with them gave a signal, with a median of 15 µM and one signal in twenty below 970 nM, so weak values seen in few replicates may be background. The control count says in how many pairings with the empty strains this scFv gave a signal.

Reference: Engelhart et al. 2022, doi:10.1038/s41597-022-01779-4. File: FLAb, binding data.